Assay results as given in patent publication US8815528B2, “Methods and systems for detecting MHC class I binding peptides” (Beckman Coulter, Inc., priority 2002, dated 2014).

Target: Monomer HLA-A*0201 (Homo sapiens, UniProt P04439, D140Y/D185E/D98H/E176V/E277Q/G131W/G231S/I119V/I121R/I166T/I218V/L300P/L318F/N151K/N90K/P208A/P217A/Q86G/Q94H/R138H/R169H/T345S)
Test: Measurement of the peptide-MHC off rate (solid phase assay, anti-HLA-ABC-FITC read-out)
Format: binding
Settings: at 37° C. and 32.5° C.

SMILES: CC(C)C[C@H](NC(=O)[C@@H](N)Cc1ccccc1)C(=O)N1CCC[C@H]1C(=O)N[C@@H](CO)C(=O)N[C@@H](CC(=O)O)C(=O)N[C@@H](Cc1ccccc1)C(=O)N[C@@H](Cc1ccccc1)C(=O)N1CCC[C@H]1C(=O)N[C@@H](CO)C(=O)N[C@H](C(=O)O)C(C)C [HBVcore]
- stability of the complex (in words): very good stability
